Measurements reported in patent US8003630B2, “Combinatorial therapies for the treatment of neoplasias using the opioid growth factor receptor” (The Penn State Research Foundation, priority 2004, dated 2011).

Assays:
MIA PaCa-2 cells = test: MIA PaCa-2 xenograft in nude mice, tumor appearance, growth and termination day measurements (Example 7); conditions: day 45
From the text: (§1) Male 4 week old BALB/c-nu/nu nude mice purchased from Harlan Laboratories (Indianapolis, Ind.) were housed in pathogen-free isolators in the Department of Comparative Medicine at the Penn State University College of Medicine. All procedures were approved by the IACUC committee of the Penn State University College of Medicine and conformed to the guidelines established by NIH. Mice were allowed 48 hr to acclimate prior to beginning experimentation.
MIA PaCa-2 cells (10^6 cells/mouse) were inoculated into nude mice by subcutaneous injection into the right scapular region; mice were not anesthetized for this procedure.
All drugs were dissolved in saline and prepared weekly. Injections were given within 1 hr of tumor cell inoculation.
(§2) Mice were weighed weekly throughout the experiment, and observed daily for the presence of tumors. The latency for a visible tumor to appear, and the time until tumors were measurable (i.e., 62.5 mm^3) were recorded. Tumors were measured using calipers every day after tumor appearance. Tumor volume was calculated using the formula w^2×1×π/6, where the length is the longest dimension, and width is the dimension perpendicular to length.
According to IACUC guidelines, mice were terminated when tumors became ulcerated, or tumors grew to 2 cm in diameter. Forty-five days following tumor cell inoculation, all mice were euthanized by an overdose of sodium pentobarbital (100 mg/kg) and killed by cervical dislocation; mice (with tumors) were weighed. Tumors and spleens were removed and weighed, and the lymph nodes, liver, and spleen examined for metastases.

[1] = Plasma levels of [Met^5]-enkephalin (OGF) by radioimmunoassay, MIA PaCa-2 tumor mice; conditions: at termination
From the text: At the time of termination, trunk blood was collected from some mice in each group.

SCC-1 cells [2] = test: Necrosis, trypan blue positivity of SCC-1 cells; conditions: SCC-1 cultures or supernatants
Experimental: Cell number was recorded either by using the MTS proliferation bioassay (Cell Titer 96 One Solution, Promega, Madison, Wis.) and measuring absorbency after 4 hr on a Biorad (Model 3550) plate reader at 490 nm with a 750 nm background absorbance screening, or by directly counting cells. The MTS assay utilized 10 wells/treatment. For manual counts, cells were harvested by trypsinization with 0.25% trypsin/0.53 mM EDTA, centrif uiged, and counted with a hemacytometer. Cell viability was determined by trypan blue staining. At least two aliquots per well, and 4-10 wells/treatment, were counted at each time for manual counting.

SCC-1 cells [3] = test: SCC-1 xenograft in nude mice, tumor growth, survival, termination day measurements (Example 9)
From the text: as §1, with “nu/nu” for “BALB/c-nu/nu”
Tumor cells were inoculated into nude mice by subcutaneous injection into the right scapular region. Subcutaneous injections were performed with at least 2×10^6 cells per mouse; mice were not anesthetized for this procedure.
Dosages were selected based on published reports. […] Injections of drugs were initiated 1 hr after tumor cell inoculation. […] Mice were weighed weekly to determine drug dosage.
as §2, with “were” for “were weighed weekly throughout the experiment, and”, “mm^3),” for “mm^3)”, “day.” for “day after tumor appearance.”
According to institutional policies and IACUC guidelines, mice were terminated when tumors became ulcerated, or tumors grew to 2 cm in diameter. […] Tumors and spleens were removed and weighed, and the lymph nodes, liver, and spleen examined for metastases.

[4] = Plasma levels of OGF by radioimmunoassay, SCC-1 tumor mice; type: in vivo, nude mice; conditions: at termination
Experimental: Plasma samples were assayed in duplicate.

[5] = day 50 (paclitaxel group: day each mouse died), means ± SEM

Substance: [Met^5]-enkephalin [OGF]
- weight of the spleen decreased from control values (MIA PaCa-2 cells): no changes in spleen weight
- Body Weight (MIA PaCa-2 cells; means ± SEM): 31.4 ± 1.6 g
- Spleen Weight (MIA PaCa-2 cells; means ± SEM): 606 ± 121 mg
- OGF levels in plasma versus control mice [1]: No differences
- necrosis, number of trypan blue positive cells versus control (SCC-1 cells [2]): No differences in necrosis
- deaths during the experimental period (SCC-1 cells [3]; 50 days): No mouse in the OGF or control groups died
- Body Weight (SCC-1 cells [3]; [5]): 32.0 ± 0.5 g
- Spleen Weight (SCC-1 cells [3]; [5]): 225 ± 12 mg
- body weights versus control animals (SCC-1 cells [3]; mouse, in vivo): No differences in body weights
- gross observations and pathological findings (SCC-1 cells [3]; mouse, in vivo): No pathological relevant findings
- OGF levels in plasma versus control mice with tumors [4]: No differences
